We go through 1 compound from patent US8728442B2, “Method of controlling the growth of microorganisms by a composition containing isolated or in vitro synthesized nitrosoamides” (Bayer CropScience LP, priority 2009, dated 2014).

In the assay the test system is yeast cells. To be noted: deletion mutants treated at 15 ug/L air.

Regarding `CC(C)C(=O)N(C)N=O` [Compound 1, N-methyl N-nitrosoisobutyramide], the “sensitive mutants for which DNA damage repair genes were deleted” value is listed as “About 38%”.
